Reference: patent publication US20040136975A1 (priority 2004, published 2004)

Target: MEK1 (Mus musculus, UniProt P31938)
Type: cell-based

## COc1cccc(-c2cc(=O)c3ccccc3o2)c1N [PD98059]
  loss of NH2-terminal epitopes of MEK1 (cleavage of intracellular MEK1): not
